# Only some compounds are listed: those with a hit (about 16% of all), similar ones and a draw of the others.
# DT40 TDP1 CPT – DT40-hTDP1 cell growth loss with CPT; chicken DT40 Tdp1-/-;hTDP1 cells + 20 nM CPT, ATP luminescence, 48 h; Potency, µM (titrated, usually from 46.2 µM), inactives show at the highest dose activity change, negative = growth inhibition, hits mostly inhibitors; hit rate 12% among 420,000; also: potency is read from the fitted curve at half-maximal effect; % is scaled to controls: 0 for no effect and ±100 for the full control effect; nearly all actives have a fitted effect of over 55% in size
#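 Cell growth measured by CellTiter-Glo luminescence after a minimum 48 h, 37 C compound exposure with 20 nM CPT in Tdp1-knockout DT40 cells stably expressing hTDP1, seeded 400/well; qHTS titration format.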
# TDP1 block – inhibitors of human tyrosyl-DNA phosphodiesterase TDP1; Q9NUW8; recombinant TDP1, AlphaScreen DNA substrate cleavage; Potency, µM (top dose mostly 130 µM), without a hit: top-dose activity change, negative = inhibition, hits mostly inhibitors; hit rate 0.28% among 350,000; AID 485290; also: potency is read from the fitted curve at half-maximal effect; % is scaled to controls: 0 for no effect and ±100 for the full control effect; nearly all actives have a fitted effect of over 40% in size
#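 Tdp1 1 nM final; 15 min RT w/ cpd; substrate 15 nM, 5 min; beads 10 ug/ml, 10 min; AlphaScreen read. Neg ctrl: no enzyme.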
# miR-21 reporter – raises the signal of a miR-21 reporter; AID 2288; 340,000 tested, under 10 active; Potency, µM (doses to about 38.3 µM), inactives show at the top dose reporter change, positive = more light; HeLa miR-21 FLuc reporter, luciferase, 48 h; active = well fitted rising curve with a large enough effect; inconclusive = small, poorly fitted or top-dose-only effect; inactive = no such curve, though single readings can be large or run the other way;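 note: % of control where 0% means no effect; miR-21 action dims this reporter so a rising signal means less miR-21 action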
#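 HeLa cells endogenously expressing miR-21, stably carrying CMV-driven firefly luciferase with a downstream miR-21 binding site, 2000 cells/well. Titrations up to approximately 40 uM, 48 hours; luciferase luminescence read.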
# uPA surface inh – blocks generation of uPA at the cell surface; Potency, µM (titrated, usually from 38.3 µM), for inactives: at the top dose activity change, negative = inhibition, actives largely listed as inhibitors; cell surface uPA generation assay, qHTS; AID 540303; hit rate 0.31% among 330,000; active = well fitted inhibition curve with a large enough effect; inconclusive = small, poorly fitted or top-dose-only effect; inactive = no such curve, though single readings can be large or run the other way; tested in mouse RAW 264.7 cells; also: potency is read from the fitted curve at half-maximal effect; % is scaled to controls: 0 for no effect and ±100 for the full control effect; nearly all actives have a fitted effect of over 55% in size
# TDP1 cell noCPT – qHTS for Inhibitors of human tyrosyl-DNA phosphodiesterase 1 (TDP1): qHTS in cells in absence of CPT | hit rate 15% among 420,000 | AID 686978, 2013 | DT40 Tdp1-/- hTDP1 cells, no CPT, ATP luminescence, 48 h | Potency, µM (titrated, usually from 46.2 µM), for the others: top-dose activity change, negative = growth inhibition, hits mostly inhibitors; also: potency is read from the fitted curve at half-maximal effect; % is scaled to controls: 0 for no effect and ±100 for the full control effect; nearly all actives have a fitted effect of over 55% in size
#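 Luminescent ATP content (CellTiter-Glo) served as the growth readout. Knockout chicken DT40 cells expressing human TDP1 were exposed to compounds without camptothecin for a minimum 48 hr at 37 °C.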
# * marks the source's active call; other numbers are inactive results; ? = inconclusive; . = no result given; [ ] = another dose, or the depositor's remark. Unless noted, calls follow the shape of the dose curve; as a rule, active = well fitted curve in the direction sought with a large enough effect; inconclusive = small, poorly fitted or top-dose-only effect, or another doubt; inactive = no such curve, though single readings can be large; an effect the other way counts as inactive or inconclusive.
# Results follow in this order: DT40 TDP1 CPT	TDP1 block	miR-21 reporter	uPA surface inh	TDP1 cell noCPT
CC1CCCCC1NC(=O)CSc1nc2ccccc2[nH]1 (centres undefined)
    -22%	-2%	10%	1%	-11%
O=C(Nc1c2c(nn1-c1ccc(F)cc1)CS(=O)(=O)C2)c1ccc2c(c1)OCO2
    -7%	2%	-4%	3%	12%
CSc1ccc2c(c1)N(CC[C@H]1CCCCN1C)c1ccccc1S2
    .	16%[21 µM]	.	.	.
CSc1ccc2c(c1)N(CCC1CCCCN1C)c1ccccc1S2 (centres undefined)
    15µM*	12%	?	?	16µM*
CC1CC(C)CN(CCCNC(=O)CN2C(=O)COc3ccc(S(=O)(=O)N4CCOCC4)cc32)C1 (centres undefined)
    -7%	0%	0%	-9%	25%
COc1cc2c(cc1OC)C(COc1ccccc1OC)N(C(=O)c1ccc(S(=O)(=O)N3CCCC3)cc1)CC2 (centres undefined)
    16µM*	13%	8%	.	?
COc1cc2c(cc1OC)C(COc1ccccc1OC)N(C(=O)c1ccccc1OC)CC2 (centres undefined)
    ?	10%	-4%	.	18µM*
CC(=O)Nc1ccc2c(c1)-c1ccc(F)cc1C2=O
    -5%	.	.	0%	?
Cc1cc(F)ccc1NC(=O)Cn1nc(N2CCN(c3ccccc3)CC2)ccc1=O
    1%	3%	3%	.	-25%
O=S(=O)(c1ccccc1)n1nc(-c2ccccc2)nc1NCc1ccco1
    -19%	2%	-31%	1%	-28%
N/C(=N\c1nc2ccccc2o1)NC(=O)c1ccccc1Br
    ?	9%	-46%	1%	16µM*
Cc1ccc2oc(/N=C(\N)NC(=O)C3CC3)nc2c1
    9.2µM*	3%	18%	?	4.6µM*
N/C(=N\c1nc2ccccc2o1)NC(=O)c1ccc(F)cc1
    13µM*	6%	-36%	-2%	13µM*
COc1ccc(S(=O)(=O)NC(C)C(=O)N2CCCC2)cc1Cl (centres undefined)
    0%	1%	-1%	7%	2%
CCOc1ccccc1NC(=O)N1CCCn2nc(C)cc21
    ?	0%	2%	.	?

# Full records, quoted from the list:
# `COc1ccc(S(=O)(=O)NC(C)C(=O)N2CCCC2)cc1Cl` (centres undefined) as listed: DT40 TDP1 CPT = 0%; TDP1 block = 1%; miR-21 reporter = -1%; uPA surface inh = 7%; TDP1 cell noCPT = 2%
# `CSc1ccc2c(c1)N(CCC1CCCCN1C)c1ccccc1S2` (centres undefined) as listed: DT40 TDP1 CPT = 15µM*; TDP1 block = 12%; miR-21 reporter = ?; uPA surface inh = ?; TDP1 cell noCPT = 16µM*

# (further entries)
# Results follow in this order: DT40 TDP1 CPT	TDP1 block	miR-21 reporter	uPA surface inh	TDP1 cell noCPT
Cc1ccc(-c2cc(C(=O)N/N=C/c3cccnc3)c3ccccc3n2)cc1C
    8.2µM*	.	.	10µM*	8.2µM*
O=C(N/N=C/c1cccnc1)c1cc(-c2ccccc2)nc2ccccc12
    ?	.	-10%	-2%	?
O=C(N/N=C/c1cccnc1)c1cc(-c2ccc(Br)cc2)nc2ccccc12
    12µM*	1%	15%	-14%	8.2µM*
CCC/C=N/NC(=O)c1cc(-c2ccccc2)nc2ccccc12
    -10%	5%	-9%	7%	?
CCOc1cc(/C=N\NC(=O)CC(=O)NCCc2ccccc2)ccc1O
    -5%	-5%	-1%	1%	0%
O=C(N/N=C/c1ccc[nH]1)c1cc(-c2ccc(Cl)cc2)nc2ccccc12
    ?	8%	?	-20%	9.2µM*
Cc1ccc(C)c(-c2cc(C(=O)N/N=C/c3cccnc3)c3ccccc3n2)c1
    ?	4%	0%	-6%	?
CCOc1cc(C=NNC(=O)N(c2ccccc2)c2ccccc2)ccc1O
    29µM*	.	.	.	16µM*
COc1ccc(CNC(=O)C(C(C)C)N2Cc3ccccc3C2=O)cc1 (centres undefined)
    -23%	2%	21%	.	-28%
CCOc1cc(/C=N/NC(=O)c2cc(-c3cccnc3)nc3ccccc23)ccc1O
    -29%	0%	4%	3%	6.5µM*
O=C(N/N=C/C1CC=CCC1)c1cc(-c2cccnc2)nc2ccccc12 (centres undefined)
    -2%	4%	16%	1%	3%
Cc1ccc(/C=N/NC(=O)c2cc(-c3cccnc3)nc3ccccc23)cc1
    2.1µM*	5%	19%	-15%	1.5µM*
CCOc1cccc(-c2cc(C(=O)N/N=C/c3ccc(OC)c(CN4CCOCC4)c3)c3ccccc3n2)c1
    18µM*	5%	7%	-4%	16µM*
